Source: patent US20240082215A1, “USE OF MGLUR5 ANTAGONISTS FOR TREATING GAMBLING DISORDER” (published 2024)

Test system: nucleus accumbens (NAcc)/ventral striatum (VS)
Experiment: fMRI monetary incentive delay task (MIDT), between-subject, placebo-controlled
Conditions: 90 min prior to fMRI

COC(=O)N1CC[C@@H]2[C@H]1CCC[C@@]2(O)C#Cc1cccc(C)c1
fMRI signal in left and right NAcc/VS, A1 phase of the MIDT, response to losses, FHN individuals (AUD family history negative (FHN) individuals, 200 mg mavoglurant one time, modified release formulation, vs placebo): essentially unresponsive to drug | fMRI signal in left and right NAcc/VS, A1 phase of the MIDT, response to losses, FHP individuals (AUD family history positive (FHP) individuals, 200 mg mavoglurant one time, modified release formulation, vs placebo, interaction p<0.001, uncorrected): reduced by mavoglurant in FHP individuals to levels equivalent to or below those of FHN individuals | circuit activity (neural activity) in FHP individuals compared with FHN individuals on placebo (FHP individuals, 200 mg one time, p<0.001): appears to “normalize” circuit activity in FHP individuals
